# Test results from ChEMBL document CHEMBL5584335, “Investigating Active Site Binding of Ligands to High and Low Activity Carbonic Anhydrase Enzymes Using Native Mass Spectrometry” (J Med Chem, 2024).
# The chains behind the UniProt entries cited, without tags or fusion partners. Where a name states a change or a piece, a line headed by the entry shows the natural chain unless it says otherwise.
# UniProt P07451: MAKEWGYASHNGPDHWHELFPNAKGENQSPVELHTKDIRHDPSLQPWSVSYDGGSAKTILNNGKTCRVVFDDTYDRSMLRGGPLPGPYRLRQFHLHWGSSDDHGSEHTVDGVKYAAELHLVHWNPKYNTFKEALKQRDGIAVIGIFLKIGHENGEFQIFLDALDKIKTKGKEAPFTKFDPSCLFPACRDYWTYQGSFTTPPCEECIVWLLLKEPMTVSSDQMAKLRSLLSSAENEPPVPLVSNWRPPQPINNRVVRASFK
# Active and inactive are the calls of the source. No cut-off for these calls is given here.
# Biological target: Carbonic anhydrase 3 (Homo sapiens, UniProt P07451)
# Assay: Binding affinity to human recombinant CA III active site expressed in Escherichia coli BL21 (DE3) pLysS cells at 18.18 uM at protein:compound ratio of 1:2 incubated for 30 mins by native mass spectrometry analysis
row,SMILES,Activity
1,NS(=O)(=O)c1cc2c(cc1C(F)(F)F)NC(Cc1ccccc1)NS2(=O)=O (configuration not stated),inactive
2,NS(=O)(=O)c1cc2c(cc1Cl)NC(C(Cl)Cl)NS2(=O)=O (configuration not stated),inactive
